Our source for the IC50 values is ChEMBL document CHEMBL5532757, “Design, synthesis, and biological evaluation of 1,2,4-oxadiazole-based derivatives as multitarget anti-Alzheimer agents” (RSC Med Chem, 2024).

By UniProt entry, the sequences of proteins in these tests, tags left out.
UniProt P06276, whole entry: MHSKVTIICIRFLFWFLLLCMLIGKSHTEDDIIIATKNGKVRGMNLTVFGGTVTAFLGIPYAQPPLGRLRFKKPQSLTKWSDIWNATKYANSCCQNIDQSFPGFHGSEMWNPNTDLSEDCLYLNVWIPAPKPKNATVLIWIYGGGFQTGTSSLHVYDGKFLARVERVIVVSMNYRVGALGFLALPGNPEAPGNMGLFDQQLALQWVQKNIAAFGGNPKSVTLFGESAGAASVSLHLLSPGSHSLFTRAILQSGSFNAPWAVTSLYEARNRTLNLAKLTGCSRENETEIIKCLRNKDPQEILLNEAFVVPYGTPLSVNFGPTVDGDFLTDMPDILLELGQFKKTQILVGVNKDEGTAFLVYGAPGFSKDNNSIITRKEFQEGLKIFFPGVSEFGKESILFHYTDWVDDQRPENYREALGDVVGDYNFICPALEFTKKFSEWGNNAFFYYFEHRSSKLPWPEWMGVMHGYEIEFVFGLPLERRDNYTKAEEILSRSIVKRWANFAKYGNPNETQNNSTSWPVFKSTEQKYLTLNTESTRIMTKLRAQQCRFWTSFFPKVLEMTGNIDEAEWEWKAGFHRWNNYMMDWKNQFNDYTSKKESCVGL

Each structure is given as a SMILES string.

The target of the assay is Cholinesterase (Homo sapiens, UniProt P06276). Briefly: Inhibition of BChE (unknown origin) using butyrylthiocholine iodide as substrate incubated for 15 mins by DTNB reagent based ELISA.

The term IC50 denotes the concentration needed to halve the response being measured. Consider `CCN(C)C(=O)Oc1cccc([C@H](C)N(C)C)c1` [RIVASTIGMINE], for which the IC50 is 5.88 µM.
